Assay results published in ChEMBL document CHEMBL1134200, “Pimarane cyclooxygenase 2 (COX-2) inhibitor and its structure-activity relationship” (Bioorg Med Chem Lett, 2001).

Molecular target: T1, Prostaglandin G/H synthase 2 (Ovis aries, UniProt P79208)
T1 sequence (P79208 whole entry): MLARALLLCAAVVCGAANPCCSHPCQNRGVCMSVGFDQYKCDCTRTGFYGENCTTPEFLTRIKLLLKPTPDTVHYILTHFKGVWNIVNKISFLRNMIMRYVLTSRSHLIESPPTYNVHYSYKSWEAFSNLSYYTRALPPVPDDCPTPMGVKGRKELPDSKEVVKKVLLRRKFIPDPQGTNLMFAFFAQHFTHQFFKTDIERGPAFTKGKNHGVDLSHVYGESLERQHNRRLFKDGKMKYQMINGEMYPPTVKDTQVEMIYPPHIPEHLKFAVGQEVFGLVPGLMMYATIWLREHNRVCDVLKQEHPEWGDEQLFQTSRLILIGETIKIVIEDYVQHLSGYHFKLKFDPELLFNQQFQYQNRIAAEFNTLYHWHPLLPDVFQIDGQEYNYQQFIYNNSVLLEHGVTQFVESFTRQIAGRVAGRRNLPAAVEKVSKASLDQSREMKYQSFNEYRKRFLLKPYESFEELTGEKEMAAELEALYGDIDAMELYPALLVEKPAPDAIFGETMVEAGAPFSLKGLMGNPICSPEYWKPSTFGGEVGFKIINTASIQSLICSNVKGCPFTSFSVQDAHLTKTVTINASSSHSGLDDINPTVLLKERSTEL
Assay: Inhibitory activity against Prostaglandin G/H synthase 2 from sheep placental cotyledons

C=C[C@@]1(C)CC=C2C(CCC3[C@](C)(CCCCC(=O)O)CCC[C@@]23C)C1 (stereo partly specified)
IC50: 38.7 µM
